# scFv variants of Ab-14 (heavy chain) against a SARS-CoV-2 spike peptide

Source: Engelhart et al. 2022 (doi:10.1038/s41597-022-01779-4), MIT Lincoln Laboratory and A-Alpha Bio; data file from the FLAb repository.

The target is the same throughout: PDVDLGDISGINAS, from the HR2 region of SARS-CoV-2 spike.

Each scFv is VH, a (GGGGS)3 linker, VL, as in the parent Ab-14, and differs from it in the CDRs of the heavy chain only.
VH: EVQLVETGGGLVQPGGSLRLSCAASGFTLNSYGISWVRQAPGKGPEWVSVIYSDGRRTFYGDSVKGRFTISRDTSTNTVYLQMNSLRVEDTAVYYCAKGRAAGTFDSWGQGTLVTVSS
VL: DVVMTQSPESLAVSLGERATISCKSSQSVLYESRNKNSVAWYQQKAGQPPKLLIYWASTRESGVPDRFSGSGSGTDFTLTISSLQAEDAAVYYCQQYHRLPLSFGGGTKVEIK

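The starting antibody came from a phage panning campaign against this peptide. In library AAYL49, one, two or three CDR residues were substituted; doubles and triples were drawn at random. In AlphaSeq, yeast of one mating type display the scFv and yeast of the other type display the target. Mating (16 h, 30 °C) was followed by selection of diploids and sequencing of their barcodes. The ratio of observed to expected reads was calibrated, replicate by replicate, on BCL2-family standards whose Kd was known from biolayer interferometry. Each pool was mated in three replicate cultures.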

The parent's heavy chain CDRs are GFTLNSYGIS, VIYSDGRRTFYGDSVK, GRAAGTFDS; each variant's own CDRs replace them letter for letter.
Values are log10 of the apparent Kd in nM; lower means stronger binding.
A mean of the replicates is given; it leaves out those without a signal.
A pair that was not seen in that replicate is written "ND"; this usually means weak binding, but a binder can also be missed.
Background: pairings of library AAYL49 with three empty control strains gave a value in 15% of cases (median 4.06, 5th percentile 2.83). Values in that range, when seen in few replicates, are hard to tell from nonspecific mating. The control count says in how many pairings with the empty strains this scFv gave a signal, with their mean in brackets.

CDR-H1,CDR-H2,CDR-H3,log10 Kd (nM) by replicate,"log10 Kd (nM), mean",empty controls
GWTLNSYGIS,VIYSDYRRTFYHDSVK,GRAAGTFDS,3.41 / 3.83 / ND,3.62,2 of 9 (4.08)
GFDLNSYGIS,VIYSDGRRTFEGDSVL,GRAAGTFDS,ND / ND / ND,ND,1 of 9 (3.31)
GETLNSYGKS,VIYSDGRWTFYGDSVK,GRAAGTFDS,ND / 4.12 / ND,4.12,0 of 9
GFTLNEYGIS,VKYSDGRRTFYGDSVK,GRLAGTFDS,ND / ND / ND,ND,3 of 9 (4.00)
GFTLNSYGIS,VIYSDGRWRFYGDSVK,GRAMGTFDS,ND / ND / ND,ND,2 of 9 (2.72)
GCTLNSYGIS,VIYSDGRRTFYGDSFK,GRAAGTFDS,ND / ND / ND,ND,0 of 9
GRTHNSYGIS,VIYSDGRRTFYGDSVK,GRAAGTTDS,ND / 3.98 / 4.44,4.21,0 of 9
GFTLNSYGIS,VIQSDGRRTFKGDSRK,GRAAGTFDS,ND / ND / ND,ND,1 of 9 (2.59)
GFTLNSYGIS,VIYSDGRRTFYGDVVK,GRAAGTRDS,ND / ND / ND,ND,2 of 9 (3.82)
GFTLNSYGIS,VIYSDGERTFYGDSLK,GRAAGTRDS,ND / ND / ND,ND,1 of 9 (4.17)
GFTLNSVGIS,VIYSDGRRTFYGDSVG,GCAAGTFDS,6.28 / ND / ND,6.28,5 of 9 (4.51)
GFTENSYGIS,VIYSDARRTFYGDSVK,GRAAGTFDL,ND / ND / ND,ND,0 of 9
GFTLNSYGIS,VIYSDGRRTFYGDLVK,TRAAGWFDS,1.96 / 1.89 / 2.06,1.97,3 of 9 (4.42)
GFTLNSYGIS,VIYSDGRRTFYGDSVK,QRSAGTYDS,ND / ND / ND,ND,0 of 9
GCTLNDYGIS,VIYSDGRRTFYGDSVK,GRACGTFDS,4.29 / ND / ND,4.29,4 of 9 (4.08)
GFTLRSYGIS,VIYSDGRRTFYGDSVK,GRAAGTFDS,1.02 / 1.61 / 1.53,1.39,2 of 9 (3.56)
GFTLNSFGMS,VIYSDGRRTFYGKSVK,GRAAGTFDS,ND / 3.05 / ND,3.05,2 of 9 (4.00)
TFTLNSYGIS,VIYSDGRRTFYGDSVK,GRAWFTFDS,2.52 / 3.02 / 2.74,2.76,1 of 9 (4.03)
GSTLNSYGIS,VIYSDGRDTFYGDSVK,GRAAGTFDY,ND / ND / ND,ND,0 of 9
GFFLNSYGIS,VIYSDGRRFFYTDSVK,GRAAGTFDS,3.41 / 2.36 / 3.45,3.07,2 of 9 (3.37)
YFTLNSYGIS,VIYSDGRRTFYGDSVK,GRAAGTFDD,ND / 3.46 / ND,3.46,0 of 9
GFTLNSYGIY,VIYWDGRRTFYGDSVK,GRAAGTFDS,ND / ND / ND,ND,0 of 9
GFTLNSYGIS,VIYSMGRRTFYGDSVK,IRAAGSFDS,ND / ND / 2.74,2.74,0 of 9
GFTLNSYGIS,MCYSDGRRTFYGDSVK,GRAATTFDS,6.03 / ND / ND,6.03,2 of 9 (5.13)
GFTLNSYGIS,VIYSDGRNTFYGDSVK,GRNAGTFGS,ND / ND / ND,ND,3 of 9 (3.91)
GFTRNSYGIS,VIYSDGRRTFYGDYVK,GRAAGTHDS,ND / 4.86 / ND,4.86,2 of 9 (2.76)
GFTLNSYGIS,VITSDGRRTFGGDSVK,GRAAGTHDS,ND / ND / ND,ND,0 of 9
FFTLNSYGIL,VIYSDGRRTFYGDSVK,GRAAGTFDS,ND / ND / ND,ND,0 of 9
GFALNSYGNS,VIYSDGRRTFYGDPVK,GRAAGTFDS,ND / ND / 4.56,4.56,4 of 9 (4.14)
GFTLNSEGIS,VIYSDGLITFYGDSVK,GRAAGTFDS,ND / ND / 5.97,5.97,1 of 9 (5.35)
GFTLNNYGIS,VIYSDGRRHFYGDSVK,GRAAGTDDS,ND / 3.51 / ND,3.51,1 of 9 (4.25)
GFTMESYGIS,VIYSDGRRTFYGDSVK,ERAAGTFDS,4.06 / 4.36 / ND,4.21,4 of 9 (4.08)

For reference, the parent read 0.65 as the reference entry and 4.11 (one replicate of three) as a member of this library.